Laboratory results reported in ChEMBL document CHEMBL1133465, “[Pro(3)]Dyn A(1-11)-NH(2): a dynorphin analogue with high selectivity for the kappa opioid receptor” (J Med Chem, 2000).

Experiment: Tested for maximum agonist response at concentration 10 uM, relative to that obtained with standard agonist U50,488.

**Q.** With `CN(C(=O)Cc1ccc(Cl)c(Cl)c1)C1CCCCC1N1CCCC1` (stereo unspecified) as the compound, how does the Max agonist response read?
**A.** Its Max agonist response is 100%.
